Test results reported in PubChem BioAssay (EPA / NIEHS).
The entries are a selection whose mix differs from that of the whole data set. Activity calls are given as the source filed them. The calls were made as follows: active = hit-call score of the fitted dose curve at least 0.9, where 1 is the maximum; inactive = score below 0.9.

Assay: ATG_PPRE_CIS: Attagene CIS-FACTORIAL HepG2 Assay for human Peroxisome Proliferator-activated Response Element (PPRE) (AID 2282958)
Details: HepG2 PPRE cis-element reporter, Attagene transcription factor profiling; actives raise or lower the signal

Structure (SMILES)	outcome	AC50
CCNc1nc(NCC)nc(SC)n1	inactive	–
NNCCO	inactive	–
O=C(O)CF	inactive	–
CCNP(=S)(OC)O/C(C)=C/C(=O)OC(C)C (stereo not given)	–	active: 21.2 µM
CCOC(=O)CC(=O)CCl	inactive	–
O=C(Cl)OCCOCCOC(=O)Cl	inactive	–
COc1cc(OC)c(OC)cc1C=O	inactive	–
CCC1(c2ccc(N)cc2)CCC(=O)NC1=O (stereo not given)	inactive	–
CC(C)CCCCCCCOC(=O)c1ccccc1C(=O)OCCCCCCCC(C)C	inactive	–
Nc1ccc(Cl)cc1N	–	active: 36.5 µM
O=c1[nH]c2ccccc2n1C1CCN(CCCC(c2ccc(F)cc2)c2ccc(F)cc2)CC1	inactive	–
CCOC(=O)C1OC1(C)c1ccccc1 (stereo not given)	inactive	–
O=c1[nH]c(=O)n(Cl)c(=O)n1Cl	inactive	–
CC(C)(C1CCC(O)CC1)C1CCC(O)CC1 (stereo not given)	inactive	–
CC1(C)Cc2cccc(O)c2O1	inactive	–
CCC(C)n1c(=O)[nH]c(C)c(Br)c1=O (stereo not given)	inactive	–
OCC(c1ccc(Cl)cc1)c1ccc(Cl)cc1	inactive	–
BrCCCCBr	inactive	–

Structure (SMILES)	outcome	AC50
C=CC(Cl)CCl (stereo not given)	inactive	–
c1ccc2c(c1)CCCC2	inactive	–
CN(C)N=O	inactive	–
ClCc1ccccc1Cl	inactive	–
O=[N+]([O-])c1c2ccccc2cc2ccccc12	–	active: 1.93 µM
O=C(OC1CCCCC1)c1ccccc1C(=O)OC1CCCCC1	–	active: 12.7 µM
Nc1ccccc1C(=O)Oc1ccc2ccccc2c1	inactive	–
O=P(O)(Oc1ccccc1)Oc1ccccc1	inactive	–
O=C(O)CCl	inactive	–
Nc1ccc(-c2ccc(N)cc2)cc1	inactive	–
COC(=O)c1ccccc1C(=O)OC	inactive	–
CCCCNC(=O)n1c(NC(=O)OC)nc2ccccc21	inactive	–
NNc1ccccc1	inactive	–
C[C@]12CCC(=O)C(O)=C1CC[C@@H]1[C@@H]2CC[C@]2(C)C(=O)CC[C@@H]12	inactive	–
CCOP(=O)(OCC)SCCSCC	inactive	–
CSc1nc(NC(C)C)nc(NC(C)C)n1	–	active: 38.5 µM
COc1ccc(C=O)cc1OC	inactive	–
